Assay results published in patent US20200165312A1, “COSMETIC COMPOSITION FOR IMPROVING SKIN CONDITIONS COMPRISING FUSION PROTEIN INCLUDING SKIN PENETRATION ENHANCING PEPTIDE” (LG HOUSEHOLD & HEALTH CARE LTD., priority 2017, published 2020).

Conditions: pig, 16 h

For VEGF, the “Remaining amount (%)” value was 100 ± 24%.
